According to the Human Domainome abundance scans (Beltran et al. 2025):

B1: Tyrosine-protein kinase ABL1, residues 64 to 120; numbered along this chain, P00519 (parent)
chain: NLFVALYDFVASGDNTLSITKGEKLRVLGYNHNGEWCEAQTKNGQGWVPSNYITPVN

Variants of: B1
Assay: abundance fitness (aPCA) (normalised: wild type 0, dead -1); higher = more abundant; growth selection in yeast, the domain comes from the species named
Details: Homo sapiens

NLFVVLYDFVASGDNTLSITKGEKLRVLGYNHNGEWCEAQTKNGQGWVPSNYITPVN [A5V] and NLFVTLYDFVASGDNTLSITKGEKLRVLGYNHNGEWCEAQTKNGQGWVPSNYITPVN [A5T] are within error of each other in abundance fitness: -0.212 ± 0.091 for the first, -0.469 ± 0.18 for the second.

Going from NLFVMLYDFVASGDNTLSITKGEKLRVLGYNHNGEWCEAQTKNGQGWVPSNYITPVN [A5M] to NLFVELYDFVASGDNTLSITKGEKLRVLGYNHNGEWCEAQTKNGQGWVPSNYITPVN [A5E], the abundance fitness falls from 0.013 ± 0.091 to -1.07 ± 0.21.

Going from NLFVCLYDFVASGDNTLSITKGEKLRVLGYNHNGEWCEAQTKNGQGWVPSNYITPVN [A5C] to NLFVPLYDFVASGDNTLSITKGEKLRVLGYNHNGEWCEAQTKNGQGWVPSNYITPVN [A5P], the abundance fitness rises from 0.021 ± 0.079 to 0.295 ± 0.18.

Going from NLFVGLYDFVASGDNTLSITKGEKLRVLGYNHNGEWCEAQTKNGQGWVPSNYITPVN [A5G] to NLFVRLYDFVASGDNTLSITKGEKLRVLGYNHNGEWCEAQTKNGQGWVPSNYITPVN [A5R], the abundance fitness falls from -0.27 ± 0.09 to -0.877 ± 0.12.

First: NLFVILYDFVASGDNTLSITKGEKLRVLGYNHNGEWCEAQTKNGQGWVPSNYITPVN [A5I]
Second: NLFVSLYDFVASGDNTLSITKGEKLRVLGYNHNGEWCEAQTKNGQGWVPSNYITPVN [A5S]
The abundance fitness of the first is lower: -0.812 ± 0.43 for the first, 0.028 ± 0.076 for the second.

NLFVWLYDFVASGDNTLSITKGEKLRVLGYNHNGEWCEAQTKNGQGWVPSNYITPVN [A5W] and NLFVLLYDFVASGDNTLSITKGEKLRVLGYNHNGEWCEAQTKNGQGWVPSNYITPVN [A5L] are within error of each other in abundance fitness: -0.717 ± 0.28 for the first, -0.917 ± 0.21 for the second.

Compared with NLFVHLYDFVASGDNTLSITKGEKLRVLGYNHNGEWCEAQTKNGQGWVPSNYITPVN [A5H], NLFLALYDFVASGDNTLSITKGEKLRVLGYNHNGEWCEAQTKNGQGWVPSNYITPVN [V4L] is higher in abundance fitness: -1.1 ± 0.15 for the first, -0.185 ± 0.087 for the second.

NLFQALYDFVASGDNTLSITKGEKLRVLGYNHNGEWCEAQTKNGQGWVPSNYITPVN [V4Q] and NLFRALYDFVASGDNTLSITKGEKLRVLGYNHNGEWCEAQTKNGQGWVPSNYITPVN [V4R] are within error of each other in abundance fitness: -0.111 ± 0.14 for the first, -0.108 ± 0.072 for the second.

NLFHALYDFVASGDNTLSITKGEKLRVLGYNHNGEWCEAQTKNGQGWVPSNYITPVN [V4H] and NLFKALYDFVASGDNTLSITKGEKLRVLGYNHNGEWCEAQTKNGQGWVPSNYITPVN [V4K] are within error of each other in abundance fitness: -0.18 ± 0.2 for the first, 0.048 ± 0.1 for the second.

Compared with NLFSALYDFVASGDNTLSITKGEKLRVLGYNHNGEWCEAQTKNGQGWVPSNYITPVN [V4S], NLFPALYDFVASGDNTLSITKGEKLRVLGYNHNGEWCEAQTKNGQGWVPSNYITPVN [V4P] is lower in abundance fitness: 0.011 ± 0.097 for the first, -0.99 ± 0.14 for the second.

NLFNALYDFVASGDNTLSITKGEKLRVLGYNHNGEWCEAQTKNGQGWVPSNYITPVN [V4N] and NLFWALYDFVASGDNTLSITKGEKLRVLGYNHNGEWCEAQTKNGQGWVPSNYITPVN [V4W] are within error of each other in abundance fitness: -0.344 ± 0.22 for the first, -0.311 ± 0.097 for the second.

Compared with NLFYALYDFVASGDNTLSITKGEKLRVLGYNHNGEWCEAQTKNGQGWVPSNYITPVN [V4Y], NLFGALYDFVASGDNTLSITKGEKLRVLGYNHNGEWCEAQTKNGQGWVPSNYITPVN [V4G] is lower in abundance fitness: -0.239 ± 0.18 for the first, -0.663 ± 0.11 for the second.

NLFIALYDFVASGDNTLSITKGEKLRVLGYNHNGEWCEAQTKNGQGWVPSNYITPVN [V4I] and NLFVALCDFVASGDNTLSITKGEKLRVLGYNHNGEWCEAQTKNGQGWVPSNYITPVN [Y7C] are within error of each other in abundance fitness: 0.105 ± 0.081 for the first, -0.045 ± 0.12 for the second.

NLFVALDDFVASGDNTLSITKGEKLRVLGYNHNGEWCEAQTKNGQGWVPSNYITPVN [Y7D] and NLFVALFDFVASGDNTLSITKGEKLRVLGYNHNGEWCEAQTKNGQGWVPSNYITPVN [Y7F] are within error of each other in abundance fitness: -0.109 ± 0.25 for the first, 0.089 ± 0.077 for the second.

Compared with NLFVALADFVASGDNTLSITKGEKLRVLGYNHNGEWCEAQTKNGQGWVPSNYITPVN [Y7A], NLFVALEDFVASGDNTLSITKGEKLRVLGYNHNGEWCEAQTKNGQGWVPSNYITPVN [Y7E] is higher in abundance fitness: -0.039 ± 0.1 for the first, 0.159 ± 0.096 for the second.

NLFVAGYDFVASGDNTLSITKGEKLRVLGYNHNGEWCEAQTKNGQGWVPSNYITPVN [L6G] and NLFVAMYDFVASGDNTLSITKGEKLRVLGYNHNGEWCEAQTKNGQGWVPSNYITPVN [L6M] are within error of each other in abundance fitness: -0.086 ± 0.083 for the first, -0.056 ± 0.13 for the second.

First: NLFVASYDFVASGDNTLSITKGEKLRVLGYNHNGEWCEAQTKNGQGWVPSNYITPVN [L6S]
Second: NLFVAQYDFVASGDNTLSITKGEKLRVLGYNHNGEWCEAQTKNGQGWVPSNYITPVN [L6Q]
The abundance fitness of the first is lower: -0.135 ± 0.077 for the first, 0.028 ± 0.06 for the second.

Compared with NLFVAPYDFVASGDNTLSITKGEKLRVLGYNHNGEWCEAQTKNGQGWVPSNYITPVN [L6P], NLFVAKYDFVASGDNTLSITKGEKLRVLGYNHNGEWCEAQTKNGQGWVPSNYITPVN [L6K] is higher in abundance fitness: -0.94 ± 0.27 for the first, -0.096 ± 0.12 for the second.

Compared with NLFVAEYDFVASGDNTLSITKGEKLRVLGYNHNGEWCEAQTKNGQGWVPSNYITPVN [L6E], NLFVAIYDFVASGDNTLSITKGEKLRVLGYNHNGEWCEAQTKNGQGWVPSNYITPVN [L6I] is higher in abundance fitness: 0.013 ± 0.072 for the first, 0.359 ± 0.14 for the second.

NLFVADYDFVASGDNTLSITKGEKLRVLGYNHNGEWCEAQTKNGQGWVPSNYITPVN [L6D] and NLFVATYDFVASGDNTLSITKGEKLRVLGYNHNGEWCEAQTKNGQGWVPSNYITPVN [L6T] are within error of each other in abundance fitness: -0.035 ± 0.15 for the first, 0.043 ± 0.11 for the second.

NLFVAVYDFVASGDNTLSITKGEKLRVLGYNHNGEWCEAQTKNGQGWVPSNYITPVN [L6V] and NLFVARYDFVASGDNTLSITKGEKLRVLGYNHNGEWCEAQTKNGQGWVPSNYITPVN [L6R] are within error of each other in abundance fitness: -0.051 ± 0.058 for the first, -0.004 ± 0.07 for the second.

Going from NLFVAHYDFVASGDNTLSITKGEKLRVLGYNHNGEWCEAQTKNGQGWVPSNYITPVN [L6H] to NLFVAYYDFVASGDNTLSITKGEKLRVLGYNHNGEWCEAQTKNGQGWVPSNYITPVN [L6Y], the abundance fitness falls from -0.167 ± 0.2 to -0.576 ± 0.15.

NLFVACYDFVASGDNTLSITKGEKLRVLGYNHNGEWCEAQTKNGQGWVPSNYITPVN [L6C] and NLFVAFYDFVASGDNTLSITKGEKLRVLGYNHNGEWCEAQTKNGQGWVPSNYITPVN [L6F] are within error of each other in abundance fitness: -0.592 ± 0.24 for the first, -0.324 ± 0.2 for the second.

NLFVAAYDFVASGDNTLSITKGEKLRVLGYNHNGEWCEAQTKNGQGWVPSNYITPVN [L6A] showed an abundance fitness of 0.02 ± 0.065.

± gives the uncertainty stated by the source.
